Test results from PMC5960647 (Experimental & Molecular Medicine, 2018).

Chains of the proteins cited; added tags and fusions are not shown.
UniProt P32239, whole entry partner: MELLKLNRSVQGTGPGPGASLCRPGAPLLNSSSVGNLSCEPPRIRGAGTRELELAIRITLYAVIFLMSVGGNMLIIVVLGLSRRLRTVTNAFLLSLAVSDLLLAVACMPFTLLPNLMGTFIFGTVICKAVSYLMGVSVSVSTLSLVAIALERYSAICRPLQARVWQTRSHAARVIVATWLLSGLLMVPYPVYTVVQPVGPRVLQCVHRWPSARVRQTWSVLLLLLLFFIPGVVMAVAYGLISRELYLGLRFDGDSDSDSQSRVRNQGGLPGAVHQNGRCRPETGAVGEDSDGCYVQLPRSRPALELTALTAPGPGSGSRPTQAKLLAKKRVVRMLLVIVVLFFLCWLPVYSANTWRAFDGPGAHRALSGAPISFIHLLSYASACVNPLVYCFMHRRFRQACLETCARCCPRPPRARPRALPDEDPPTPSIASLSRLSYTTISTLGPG

Assays:
Type in all cases: cell-based
MOR + CCKBR [1] = target: T1, MOR + CCKBR (Homo sapiens, UniProt P32239+P35372); assay: Intracellular cAMP assay
MOR + CCKBR [2] = target: T1, MOR + CCKBR; assay: ERK1/2 phosphorylation assay, HEK293 cells co-expressing HA-MOR and FLAG-CCKBR
MOR = MOR (Homo sapiens, UniProt P35372); assay: ERK1/2 phosphorylation assay, HEK293 cells expressing HA-MOR alone

[D-Ala^2,N-Me-Phe^4,Gly-ol^5]-enkephalin [DAMGO]
inhibition of forskolin-induced cAMP accumulation compared with cells expressing MOR alone (MOR + CCKBR [1]; 10^−11 M DAMGO, 30 min, 100 μM forskolin, 500 μM IBMX, ELISA): inhibition of cAMP accumulation decreased
cAMP response, difference between the two cell types at a higher dose (MOR + CCKBR [1]; higher dose of DAMGO, co-expressing cells vs MOR alone): no significant difference
ERK1/2 phosphorylation at 5 min compared with cells expressing MOR alone (MOR + CCKBR [2]; 10^−10 M DAMGO, 5 min, **p < 0.01, t-test, n = 3): decreased significantly
time of return of ERK1/2 phosphorylation almost to basal level (MOR + CCKBR [2]; 10^−10 M DAMGO, MOR and CCKBR co-expressing cells): ~15 min
time of peak ERK1/2 phosphorylation (MOR + CCKBR [2]; 10^−10 M DAMGO, MOR and CCKBR co-expressing cells, 1 to 60 min): 5 min
ERK1/2 phosphorylation compared with cells expressing MOR alone (MOR + CCKBR [2]; DAMGO 10^−10, 10^−9, and 10^−8 M, 5 min, *p < 0.05, t-test, n = 4): Significantly lower ERK1/2 phosphorylation responses
ERK1/2 phosphorylation, concentration response (MOR + CCKBR [2]; DAMGO, MOR and CCKBR co-expressing cells, 37 °C, 5 min exposure): enhanced ERK1/2 phosphorylation in a concentration-dependent manner
time of return of ERK1/2 phosphorylation almost to basal level (MOR; 10^−10 M DAMGO, MOR alone): ~15 min
time of peak ERK1/2 phosphorylation (MOR; 10^−10 M DAMGO, MOR alone, 1 to 60 min): 5 min
ERK1/2 phosphorylation, concentration response (MOR; DAMGO, cells expressing MOR alone, 37 °C, 5 min exposure): enhanced ERK1/2 phosphorylation in a concentration-dependent manner
